Laboratory results published in US20130136721A1, “Compositions and Methods of Generating a Differentiated Mesodermal Cell” (THE JOHNS HOPKINS UNIVERSITY, priority 2010, published 2013).

System: H9 hESC
Assay: Beating hEB assay (contracting hEB after forced aggregation cardiac differentiation)
Assay type: cell-based, human
Conditions: supplement in d0-d2 medium; contracting hEB d9
From the text: The cardiac differentiation protocol was divided into four distinct phases for optimization (FIG. 3A): phase 1: uniform undifferentiated growth; phase 2: hEB formation/mesoderm induction; phase 3: hEB cardiac specification; phase 4: contracting cardiomyocyte development. A simple beating hEB assay was used to sequentially assess improvements in cardiac differentiation in each of these four phases by counting the number of hEB contracting after nine days of differentiation, a time point that was identified as the day of maximum percentage contraction in the enhanced ‘prototype’ version of the protocol (FIG. 1B). […] For each variable tested, the bell-curve distribution of dose-response was determined. […]
For forced aggregation hEB differentiations, confluent hESC or hiPSC which had been grown on a commercially available extracellular matrix, Geltrex (Invitrogen) as monolayers for 3 to 13 passages were passaged with TrypLE Select and seeded at 2.5×10^6 per T25 flask. […] Media was changed on d7 and every 3 days afterwards. hEB were visually assessed for contraction on d9 using a Nikon Eclipse Ti inverted tissue culture microscope with a TOKAI-HIT heated stage (Nikon). […]
One single replicate consists of one 96-well plate. […] Total number of hEB assessed in this work exceeds 80,000. […]

B1: BMP2: growth factor titrated between 1-100 ng mL-1 (protein, UniProt P12643 283-396, looked up)
Bone morphogenetic protein 2: QAKHKQRKRLKSSCKRHPLYVDFSDVGWNDWIVAPPGYHAFYCHGECPFPLADHLNSTNHAIVQTLVNSVNSKIPKACCVPTELSAISMLYLDENEKVVLKNYQDMVVEGCGCR
- effect on cardiac differentiation, phase 2 medium: none were found to have the same potency as BMP4
